Assay results published in PMC5399052, “Integrating in vitro data and physiologically based kinetic (PBK) modelling to assess the in vivo potential developmental toxicity of a series of phenols” (Archives of Toxicology, 2016).

Key:
rat = assay: In vitro PBK-based reverse dosimetry (predicted developmental toxicity)

With `CCCCCCCOc1ccc(O)cc1` [p-Heptyloxyphenol, p-heptyloxyphenol] the “Potency ratio (phenol / p-substituted phenol), in vitro PBK approach” value (rat; BMDL05 based on Cmax) was 0.8 fold, the “Difference between in vitro-derived and in vivo-derived relative potency after PBK-based reverse dosimetry” value (rat; EST data with reverse dosimetry) was under 2.1 fold and the “Fold difference predicted BMDL05 (AUC0-10d) versus in vivo BMDL05” value (rat; rat GD11) was 1.7 fold. The “Fold difference predicted BMDL05 (Cmax) versus in vivo BMDL05” value (rat; rat GD11) was 4.2 fold, the “Catalytic efficiency (Vmax/Km)” value (rat liver microsomes) was 28.0 ml/min/mg protein and the Scaled catalytic efficiency (rat liver microsomes) was 63.8 l/h/g liver. The “P app BeWo fold lower than P app Caco-2” value (BeWo cells) was 6.8 fold.
